# Test results as given in US20050064485A1, “Multiplex binding and activity assays” (priority 2003, published 2005).
# Target: T1, Epidermal Growth Factor Receptor (EGFR) Tyrosine Kinase (Homo sapiens, UniProt P00533)
# T1 construct: purchased PanVera, Madison Wis; P2628
# Assay: EGFR kinase multiplex FP/TR-RET library screen and follow-up titration
# Assay type: biochemical
# Conditions: 10 μM library compound
smiles,measurement,value
"COc1cc2ncnc(Nc3cccc(Cl)c3)c2cc1OC [Tyrophostin AG 1478, Tyrphostin AG1478]",inhibition in library screen,strong inhibition
